{
  "source": "patent US12180215B2",
  "about": "“Substituted pyrrolo[3,4-d]imidazoles as JAK inhibitors” (HENAN MEDINNO PHARMACEUTICAL TECHNOLOGY CO., LTD., priority 2019, dated 2024)",
  "key": {"TYK2 [1]": {"target": "TYK2 (Homo sapiens, UniProt P29597)", "test": "TYK2 kinase ADP-Glo assay (Example 59)", "format": "biochemical", "set-up": "purchased Invitrogen PV4790"}, "TYK2 [2]": {"target": "T1, TYK2 (Homo sapiens, UniProt P29597)", "T1 sequence (P29597 871-1187 limits assumed)": "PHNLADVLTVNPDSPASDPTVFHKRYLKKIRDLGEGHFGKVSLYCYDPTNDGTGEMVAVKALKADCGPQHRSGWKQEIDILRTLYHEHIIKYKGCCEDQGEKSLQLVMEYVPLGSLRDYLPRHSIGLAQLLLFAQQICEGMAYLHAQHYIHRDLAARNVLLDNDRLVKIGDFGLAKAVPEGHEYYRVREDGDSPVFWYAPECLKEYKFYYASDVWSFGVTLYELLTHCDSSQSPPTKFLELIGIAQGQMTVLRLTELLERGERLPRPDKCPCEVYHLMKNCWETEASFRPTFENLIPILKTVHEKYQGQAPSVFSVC", "test": "TYK2 kinase ADP-Glo assay (Example 60)", "details": "IC50 (nM), TYK2 Experiment, Example 60, second series (MDI-237 to MDI-263); TYK2 (Carna) 10 nM, ATP 10 μM, IRS1 0.02 mg/mL"}},
  "data": [
    {"compound": "O=C(Nc1nc2cccc(-c3ccc(CN4CCS(=O)(=O)CC4)cc3)n2n1)C1CC1", "note": "[reference compound]", "values": [
      {"measurement": "IC50", "setting": "TYK2 [1]", "value": 0.128, "unit": "µM"},
      {"measurement": "IC50", "setting": "TYK2 [2]", "value": 233, "unit": "nM"}
    ]}
  ]
}
